# Assay results as given in patent publication US6323205A (priority 2000, dated 2001).
# Settings: dog, in vivo, iv
compound,measurement,value
C#CCC(Cc1cnc2nc(N)nc(N)c2n1)c1ccc(C(=O)N[C@@H](CCC(=O)O)C(=O)O)cc1 (stereo partly shown) [10-propargyl-10-deazaaminopterin],estimated LD50,about 8 mg/kg
